According to patent US8383609B2, “Phosphorus containing heterocyclic compounds, sugar analogues, and compositions having anti-cancer activity containing the same” (Centre National de la Recherche Scientifique, priority 2007, dated 2013):

Legend:
[1] = test system: spontaneously converted astrocytes collected from the cortex of a newborn rat; experiment: Cytotoxicity on the spontaneously converted astrocytes (qualitative assay, microscopic observation); assay type: cell-based; settings: microscopic observation each day for four days, 50 μM to 400 nM
Text: a) Spontaneously converted astrocytes collected from the cortex of a newborn rat (see Bochelen D., Langley K., Adamczyk M., Kupfberg, Hor F., Vincendon G., Mersel M., J. Neurosci. Res., 2000, 62, 99-111), that is to say from normal glial cells maintained in culture and that became able to divide to infinity. These cells are not able to induce tumors after implantation in the rat but did avoid the cell cycle regulation. This cell line was maintained in culture in culture flasks in the presence of 5 mL of culture medium MH5 comprising 70% of MEM and 30% of a Hanks solution. This medium was supplemented with 5% of foetal calf serum. The culture medium was changed every three days. Cells were incubated at 37° C. in an air/CO2 atmosphere (95/5). For the experiments, a replanting was effected after removal of the culture medium, cells were treated for 4 to 5 minutes with trypsine (0.1%). The cell suspension was then placed in 5 mL of fresh medium, 50 μL of this solution were collected to perform the cell counting. Once the expected dilution had been obtained, the 96-well culture plates were seeded, the culture volume being 200 μL.
These assays conducted on compounds 3.28, 3.8, 3.5. […] The effect was evaluated by simple microscopic observation of the culture plates. This evaluation consisted in observing each day and for four days, at concentrations ranging from 50 μM to 400 nM. The evaluated compounds did present an activity at a very low concentration. An activity could be observed after 72 h to 96 h (days 3 and 4) for the whole evaluated compounds.

[2] = test system: astrocyte primary cultures from the cortex of a newborn rat; experiment: Cytotoxicity on the non modified astrocytes, so called healthy cells (quantitative assay); settings: second day after addition, 50 μM to 24 nM

| Substance | cytotoxic activity on spontaneously converted astrocytes [1] | cytotoxicity on healthy cells (cell viability) [2] |
| --- | --- | --- |
| 4-(2,2-Dimethyl-[1,3]dioxolan-4-yl)-2,2-dimethyl-2-oxo-2-phenyl-tetrahydro-6λ*5*-[1,3]dioxolo[4,5-d][1,2]oxaphosphinin-3-mesyl [Compound 3.8] | cytotoxic activity |  |
| 4-(2,2-Dimethyl-[1,3]dioxolan-4-yl)-2,2-dimethyl-2-oxo-2-phenyl-tetrahydro-6λ*5*-[1,3]dioxolo[4,5-d][1,2]oxaphosphinin-3-tosyl [Compound 3.5] | cytotoxic activity |  |
| 6-(1,2-dihydroxy-ethyl)-2,2-dimethyl-2-oxo-2-diethoxymethyl-tetrahydro-6λ*5*-[1,3]dioxolo[4,5-d][1,2]oxaphosphinan-3-tosyl [Compound 3.6] | cytotoxic activity | absence of cytotoxicity |
| 6-(1,2-dihydroxy-ethyl)-2-oxo-2-phenyl-2λ*5*-[1,2]oxaphosphinane-4,5-diol-3-tosyl [Compound 3.7] | cytotoxic activity |  |
